PubChem BioAssay AID1347056 (Sanford-Burnham Center for Chemical Genomics, 2019)
This is a selection; strong and weak results do not stand in their true shares. The source made the active and inactive calls.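 The calls were made as follows: active = compounds whose plate-normalised and pattern-corrected inhibition of the luciferase reporter signal at the single screening dose is 50% or more; inactive = the rest.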

Test: inhibitors of TROY-driven NF-kB signaling, primary screen, Q293 LMP1-TROYcd cells, NF-kB luciferase, uHTS (AID 1347056)
Details: Q293 LMP1-TROYcd NF-kB luciferase reporter, 4 h; at 10 µM; hits give high values

Structure (SMILES)	inhibition
Cc1ccccc1CN(C)C(=O)COC(=O)C(O)(c1ccccc1)c1ccccc1	inactive: 10.3%
C[C@H]1OP(=O)(Oc2ccccc2)C[C@@H]2O[C@@H]21 (some centres not stated)	inactive: -8.52%
C[C@@H]1C=CCP(=O)(Oc2ccccc2)O1 (some centres not stated)	inactive: -14.8%
CC(=O)c1ccc(N2CC2c2ccncc2)cc1 (configuration not stated)	inactive: 15.7%
N#C/C(=C\c1ccc(N(CCBr)CCBr)cc1)C(N)=O	inactive: -17.8%
COC(=O)C1(C)COP(=O)(NCc2ccccc2)OC1 (configuration not stated)	inactive: -3.56%
CC(=O)Nc1ccc([As](=O)(O)O)c(O)c1	inactive: -12.1%
CC(=O)Nc1ccc(Oc2c([N+](=O)[O-])cc([N+](=O)[O-])cc2[N+](=O)[O-])cc1	inactive: -0.35%
O=P1(Nc2nc3ccc(Cl)cc3s2)COc2ccccc2O1 (configuration not stated)	inactive: -14.5%
CCOc1ccc(C2=NCC(CBr)S2)cc1 (configuration not stated)	inactive: 5.63%
CC(C)(C)C(=O)NC(Sc1ccccc1)C(Cl)(Cl)Cl (configuration not stated)	inactive: -3.83%
CCc1cc(O)c([N+](=O)[O-])c(C)c1[N+](=O)[O-]	inactive: 7.96%
O=C(OC1CN2CCC1CC2)c1ccccc1 (configuration not stated)	inactive: -18.6%
CCC(=O)N1C2C3N(C(=O)CC)C1C1N(C(=O)CC)C(C(N1C(=O)CC)N3C(=O)CC)N2C(=O)CC	inactive: 12.4%
COC(=O)c1cc2c(s1)N=C(c1ccccc1)N(C)P2(=O)N1CCOCC1 (configuration not stated)	inactive: 2.25%
Cc1ccc(OP(=O)(Nc2ccccn2)Oc2ccc(C)cc2)cc1	inactive: 12.7%
CC(=O)NC(SC(=S)N(CC(C)C)CC(C)C)C(Cl)(Cl)Cl (configuration not stated)	inactive: 12.6%
CC(NC(=O)COC(=O)C(O)(c1ccccc1)c1ccccc1)c1ccccc1 (configuration not stated)	inactive: -15.2%
Cc1ccccc1OP(=O)(Nc1ccccn1)Oc1ccccc1C	inactive: 26.4%
O=c1c2cc([N+](=O)[O-])ccc2[nH]c2c([N+](=O)[O-])cc([N+](=O)[O-])cc12	active: 75.1%
CN(C)C(=O)Oc1noc2ccccc12	inactive: 5.08%
c1ccc(-c2nn[nH]n2)c(-c2nn[nH]n2)c1	inactive: 2.63%
Cc1ccc(NP(=O)(Oc2cccc(C)c2)Oc2cccc(C)c2)nc1	inactive: 6.8%
CCNC(=S)/N=C(\N)N[N+](=O)[O-]	inactive: -5.06%
O=C(NC1CCS(=O)(=O)C1)NP(=S)(Oc1ccccc1)Oc1ccccc1 (configuration not stated)	inactive: -13.4%
O=P1(N(CCCl)CCCl)OCCC2CCCCN21 (configuration not stated)	inactive: -8.27%
O=[As](O)(c1ccccc1)c1ccc(O)cc1	inactive: -1.94%
